Activity calls are given as the source filed them. No cut-off for these calls is given here.

Activity data for one compound are collected here from ChEMBL document CHEMBL3853313, “Iminoguanidines as Allosteric Inhibitors of the Iron-Regulated Heme Oxygenase (HemO) of Pseudomonas aeruginosa” (J Med Chem, 2016).

The assay addresses T1, Heme oxygenase (Pseudomonas aeruginosa) (UniProt O69002).
T1 sequence (whole entry): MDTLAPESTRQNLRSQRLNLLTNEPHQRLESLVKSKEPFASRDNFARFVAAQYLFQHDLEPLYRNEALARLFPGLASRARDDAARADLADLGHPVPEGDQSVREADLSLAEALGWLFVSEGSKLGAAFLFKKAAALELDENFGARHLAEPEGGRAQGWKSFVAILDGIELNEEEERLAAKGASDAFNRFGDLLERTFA
As to the kind of experiment: Binding affinity to Pseudomonas aeruginosa holo-HemO (53 to 62 residues) at 30 mins by HXMS method.

For the compound `CN(C)c1ccc(/C=N/NC(=N)N)cc1.Cl`, the outcome was Active.
